This is an account of results in ChEMBL document CHEMBL5131394, “Structure-activity and mechanistic studies of non-peptidic inhibitors of the PLK1 polo box domain identified through REPLACE” (Eur J Med Chem, 2022).

A short description of this experiment: Antiproliferative activity against human p53HCT116 cells assessed as cell viability measured after 72 hrs by MTT assay. Format: functional, cell-based. Particulars: p53HCT116, 72 h.

In the case of `CCCCCCCCc1ccc(C(=O)Nc2cccc(F)c2C(=O)O)cc1`, the IC50 (usually the concentration at which inhibition is half-maximal) came to 12.4 µM.
